Data taken from PubChem BioAssay AID588436 (Broad Institute, 2011).
Only a part is listed here, and it is no random draw. Active and inactive are the calls of the source. Rule as the data show it: active = activation mostly above about 9.7% (no sharp cut-off); inconclusive = no clear call, values can overlap the other calls; inactive = mostly below about 3.7%.

Assay: induces V. cholerae light production without autoinducers, primary screen, BH1578 luxS cqsA deficient, single point (AID 588436)
Settings: V. cholerae BH1578 lux reporter, luminescence, 6 h; at 18.7 µM; stronger effect = higher value

Row | SMILES | activation
1 | CCCOP(=S)(Nc1nc(N)cc(=O)[nH]1)OCCC | inactive: 0.4%
2 | Cc1ccc(NCCc2c([N+](=O)[O-])cc([N+](=O)[O-])cc2[N+](=O)[O-])cc1 | inactive: -0.252%
3 | Nc1cccc2c([As](=O)(O)O)cccc12 | inactive: 0%
4 | COc1cc(C2NCCC3(OCCO3)C2(C)C)cc(OC)c1OC (configuration not stated) | inactive: 0.102%
5 | CCOP(=O)(Nc1cccc2ccccc12)OCC | inactive: -0.311%
6 | O=[As](O)(O)c1cccnc1 | inactive: -0.682%
7 | COc1cc(C(=O)NCC2(N3CCOCC3)CCCCC2)cc(Cl)c1OC(C)C | inactive: -0.373%
8 | CS(=O)(=O)c1ccc(Cl)c(NC(=O)COC(=O)C(O)(c2ccccc2)c2ccccc2)c1 | inactive: 0%
9 | O=C(OC1CN2CCC1CC2)c1ccc(Cl)cc1 (configuration not stated) | inactive: -0.161%
10 | Cc1cccc(OCC(=O)OC2CN3CCC2CC3)c1 (configuration not stated) | inactive: 4.17%
11 | O=[As](O)(c1cccc(O)c1)c1cccc(O)c1 | inactive: 0%
12 | O=[N+]([O-])c1ccc2c(c1)nnn2O | inactive: 1.04%
13 | CN(C)C(=O)c1cc([N+](=O)[O-])cc2c1-c1c(cc([N+](=O)[O-])cc1[N+](=O)[O-])C2=O | inactive: 0%
14 | CN(C(=O)Cc1ccc(Cl)c(Cl)c1)[C@H]1CC[C@@]2(CCCO2)C[C@@H]1N1CCCC1 | inactive: -0.392%
15 | N#CCCN(C(=O)COC(=O)C(O)(c1ccccc1)c1ccccc1)c1ccc(F)cc1 | inactive: 0%
16 | CN(C(=O)Cc1ccccc1)[C@@H]1CC[C@]2(CCCO2)C[C@H]1N1CCCC1 | inactive: -0.256%
17 | CCOP1(=S)c2c(C)nn(CCC#N)c2N=C(c2ccc(F)cc2)N1C (configuration not stated) | inactive: -3.57%
18 | CS(=O)(=O)c1cc([N+](=O)[O-])c2no[n+]([O-])c2c1 | inactive: 0%
19 | CCOP1(=S)c2c(C)nn(CCC#N)c2N=C(c2ccccc2F)N1C (configuration not stated) | inactive: -8.33%
20 | O=P(Nc1nccs1)(c1ccccc1)c1nc2ccccc2s1 (configuration not stated) | inactive: 0%
21 | Nc1ccccc1[As](=O)(O)c1ccccc1 | inactive: 0%
22 | O=C(O)COc1ccc([As](=O)(O)O)cc1[N+](=O)[O-] | inactive: -5.56%
23 | O=P1(Nc2ncccn2)COc2ccccc2OC1 | inactive: 0%
24 | Cc1ccc(OCC(=O)OC2CN3CCC2CC3)cc1 (configuration not stated) | inactive: -0.595%
25 | O=[As](O)(c1cccs1)c1cccs1 | inactive: -0.612%
26 | O=P1(Nc2ccc(Br)cn2)COc2ccccc2OC1 | inactive: 0%

Row | SMILES | activation
27 | NS(=O)(=O)c1cccc(NC(=O)COC(=O)C(O)(c2ccccc2)c2ccccc2)c1 | inactive: 0%
28 | Nc1cccc([As](=O)(O)c2ccccc2)c1 | inactive: -0.39%
29 | Cc1nn(-c2ccccc2)c2c1P(=O)(N1CCOCC1)N(C)C(c1ccccc1)=N2 (configuration not stated) | inactive: 0%
30 | CC1CCC(C(C)C)C(OP(=O)(Nc2ccccn2)c2ccccc2)C1 (configuration not stated) | inactive: -0.292%
31 | Cc1ccc(C(=O)OC2CN3CCC2CC3)cc1 (configuration not stated) | inactive: -1.14%
32 | O=C(/C=C/c1ccccc1)OC1CN2CCC1CC2 (configuration not stated) | inactive: -0.907%
33 | CN(C)C1(CNC(=O)c2ccc(S(C)(=O)=O)cc2)CCCCC1 | inactive: -0.366%
34 | COc1ccccc1CNC(=O)COC(=O)C(O)(c1ccccc1)c1ccccc1 | inactive: 0%
35 | CC1(CBr)Cn2c(nc3ccccc3c2=O)S1 (configuration not stated) | inactive: 3.45%
36 | CC(C)/C=N\N=C(\N)N[N+](=O)[O-] | inactive: 0.136%
37 | CN(C(=O)Cc1ccc(Cl)c(Cl)c1)[C@@H]1CCCC[C@H]1N1CCCC1 | inactive: 8.33%
38 | CCOP(=O)(Nc1ccc(C)cn1)OCC | inactive: 0%
39 | CN(CCCl)Cc1cc(Cl)c(NC2=NCCN2)c(Cl)c1 | inactive: -0.259%
40 | O=P1(Nc2ccccn2)COc2ccccc2OC1 | inactive: 0%
41 | CCC1=CC2Cc3nc4ccc(Cl)cc4c(N)c3C(C1)C2 (configuration not stated) | inactive: -0.874%
42 | CCOP(=O)(NC(=NC(C)c1ccccc1)NC(C)c1ccccc1)OCC (configuration not stated) | inactive: -6.9%
43 | O=P1(N(CCCl)CCCl)NCCC(C(F)(F)F)O1 (configuration not stated) | inactive: -5.26%
44 | Clc1n[nH]nc1-c1nn[nH][15n]1 | inactive: -0.695%
45 | CC(C)(C)C(=O)NC(Sc1ncccn1)C(Cl)(Cl)Cl (configuration not stated) | inactive: 0%
46 | CCOC(=O)c1ccc(NC(=O)C(C)(CCl)SC)cc1 (configuration not stated) | inactive: -0.616%
47 | O=C(OC1CN2CCC1CC2)c1cccc([N+](=O)[O-])c1 (configuration not stated) | inactive: -0.558%
48 | CSc1ccc(Nc2c([N+](=O)[O-])cc([N+](=O)[O-])cc2[N+](=O)[O-])cc1 | inactive: 0%
49 | CCC(C)N(CC(C)C)C(=S)SC(NC(C)=O)C(Cl)(Cl)Cl (configuration not stated) | inactive: 0%
50 | COP1(=S)c2c(C)nn(CCC#N)c2N=C(c2ccc(F)cc2)N1C (configuration not stated) | inactive: 0%
51 | O=C(COc1ccccc1)OC1CN2CCC1CC2 (configuration not stated) | inactive: -0.429%
52 | O=C(Nc1ccncc1[N+](=O)[O-])c1ccc([N+](=O)[O-])cc1[N+](=O)[O-] | inactive: -0.618%

Row | SMILES | activation
53 | O=C(O)C(=O)c1ccc(N(CCCl)CCCl)cc1 | inactive: 0%
54 | CCOC(=O)Nc1cccc([As](=O)(O)O)c1 | inactive: 0%
55 | O=[N+]([O-])c1ccc(Nc2ccc(Oc3ccc([N+](=O)[O-])cc3[N+](=O)[O-])cc2)c([N+](=O)[O-])c1 | inactive: -0.51%
56 | O=P(Nc1ccccn1)(c1cccc2ccccc12)c1cccc2ccccc12 | inactive: -0.267%
57 | Cc1cc(SC(NC=O)C(Cl)(Cl)Cl)ncn1 (configuration not stated) | inactive: -1.41%
58 | CC1CCNP(=O)(N(CCCl)CCCl)O1 (configuration not stated) | inactive: 0%
59 | CCOC(=O)Nc1ccc([As](=O)(O)O)c(O)c1 | inactive: -0.296%
60 | O=C(O)C(O)c1ccc(N(CCCl)CCCl)cc1 (configuration not stated) | inactive: 0%
61 | CCCCOc1ccc(C(=O)NCC2(N3CCCCC3)CCCCC2)cc1OC | inactive: -2.55%
62 | Cc1cc(SC(NC(=O)c2ccccc2)C(Cl)(Cl)Cl)nc(C(C)C)n1 (configuration not stated) | inactive: -0.387%
63 | COP(=O)(OC)N1CC1c1ccccc1 (configuration not stated) | inactive: 0%
64 | COC(=O)C1(C)COP(=O)(N2CCCCCC2)OC1 (configuration not stated) | inactive: 1.09%
65 | CC(C)c1ccc(OP(=O)(Nc2ccccn2)Oc2ccccc2F)cc1 (configuration not stated) | inactive: 0%
66 | ClCCSc1nnc(-c2cccnc2)o1 | inactive: -0.449%
67 | CC(C)NC(=O)NP(=O)(Oc1ccccc1)Oc1ccccc1 | inactive: 0.345%
68 | CCN(CC)C(=S)SC(NC=O)C(Cl)(Cl)Cl (configuration not stated) | inactive: 0%
69 | O=C(OC1CN2CCC1CC2)c1cccc2[nH]cnc12 (configuration not stated) | inactive: -0.103%
70 | O=[N+]([O-])c1cc([N+](=O)[O-])c(-c2ccn[nH]2)s1 | inactive: -0.098%
71 | O=[As](O)(c1ccc(O)cc1)c1ccccc1O | inactive: -0.39%
72 | C[As](=O)(O)c1cccc(C(=O)O)c1 | inactive: 0.0115%
73 | O=[N+]([O-])c1ccc(-c2cc([N+](=O)[O-])c(O)c([N+](=O)[O-])c2)cc1 | inactive: -3.33%
74 | COc1cc(C(=O)NCC2(N3CCOCC3)CCCCC2)ccc1OCC(C)C | inactive: -5.2%
75 | Cc1ccc2nc3c(c(C)c2c1)CC(C(Cl)Cl)S3 (configuration not stated) | inactive: 0%
76 | Cc1ccc(OP(=O)(Nc2ccc([N+](=O)[O-])cn2)Oc2ccc(C)cc2)cc1 | inactive: -1.25%
77 | COc1ccc(N/C(=N/P(=O)(N2CCOCC2)N2CCOCC2)N2CCOCC2)cc1 | inactive: 2.08%
78 | O=C(OC1CN2CCC1CC2)C12CC3CC(CC(C3)C1)C2 (configuration not stated) | inactive: 0.465%

Row | SMILES | activation
79 | Cc1cc(=O)[nH]c(N[N+](=O)[O-])n1 | inactive: -0.482%
80 | COc1ccc2nc(NP(=O)(c3ccccc3)c3ccccc3)sc2c1 | inactive: -0.488%
81 | COc1cc(I)ccc1[As](=O)(O)O | inactive: 0.724%
82 | O=P1(N(CCCl)CCCl)Nc2ccccc2N1 | inactive: -0.834%
83 | O=P1(N(CCCl)CCCl)OCCCN1CCCl (configuration not stated) | inactive: 1.58%
84 | Nc1cc(N)c2nonc2c1[N+](=O)[O-] | inactive: 0%
85 | CC(C)CC(=O)NC(Sc1ccc(Cl)cc1)C(Cl)(Cl)Cl (configuration not stated) | inactive: -0.414%
86 | Oc1ccccc1CNc1ccccn1 | inactive: 0%
87 | O=C(NC(Sc1ccncn1)C(Cl)(Cl)Cl)c1ccccc1 (configuration not stated) | inactive: -0.104%
88 | NC(=O)c1cc([N+](=O)[O-])cc([N+](=O)[O-])c1N | inactive: -0.267%
89 | CN(C(=O)Cc1ccc(Cl)c(Cl)c1)[C@H]1CCCC[C@H]1N1CCCC1 | inactive: 0%
90 | Cc1ccc(N/C(=N/P(=O)(N2CCOCC2)N2CCOCC2)N2CCOCC2)cc1 | inactive: -0.451%
91 | COc1ccccc1OP(=O)(Nc1ccc(C)cn1)Oc1ccccc1OC | inactive: -0.828%
92 | Cc1ccc(OP(=O)(Nc2nccs2)Oc2ccc(C)cc2)cc1 | inactive: 0%
93 | CN1CCCC(OC(=O)C(c2ccccc2)c2ccccc2)C1 (configuration not stated) | inactive: -4.76%
94 | Clc1ccc(Cl)c(NC2=NCC(CBr)S2)c1 (configuration not stated) | inactive: 0.818%
95 | CCN(N=Nc1nonc1N)c1nonc1N | inactive: 0%
96 | Nc1cccc2ccc([As](=O)(O)O)cc12 | inactive: 0.585%
97 | CC(=O)Nc1ccc([As](=O)(O)O)cc1 | inactive: 1.02%
98 | O=C(O)c1ccccc1[As](=O)(O)O | inactive: -0.593%
99 | CCCC1OP(N)(=O)OCC1CC (configuration not stated) | inactive: 2.7%
100 | O=P(Nc1nc2ccc(Cl)cc2s1)(c1ccccc1)c1ccccc1 | inactive: -0.907%
101 | CN(C)P(=O)(N(C)C)n1c(Nc2ccccc2)nnc1-c1ccccc1 | inactive: -5%
102 | Cc1cc(SC(NC(=O)c2ccc(F)cc2)C(Cl)(Cl)Cl)ncn1 (configuration not stated) | inactive: -0.282%
